# Tests used:
# The chains behind the UniProt entries cited, without tags or fusion partners.
# UniProt P08842, whole entry, looked up: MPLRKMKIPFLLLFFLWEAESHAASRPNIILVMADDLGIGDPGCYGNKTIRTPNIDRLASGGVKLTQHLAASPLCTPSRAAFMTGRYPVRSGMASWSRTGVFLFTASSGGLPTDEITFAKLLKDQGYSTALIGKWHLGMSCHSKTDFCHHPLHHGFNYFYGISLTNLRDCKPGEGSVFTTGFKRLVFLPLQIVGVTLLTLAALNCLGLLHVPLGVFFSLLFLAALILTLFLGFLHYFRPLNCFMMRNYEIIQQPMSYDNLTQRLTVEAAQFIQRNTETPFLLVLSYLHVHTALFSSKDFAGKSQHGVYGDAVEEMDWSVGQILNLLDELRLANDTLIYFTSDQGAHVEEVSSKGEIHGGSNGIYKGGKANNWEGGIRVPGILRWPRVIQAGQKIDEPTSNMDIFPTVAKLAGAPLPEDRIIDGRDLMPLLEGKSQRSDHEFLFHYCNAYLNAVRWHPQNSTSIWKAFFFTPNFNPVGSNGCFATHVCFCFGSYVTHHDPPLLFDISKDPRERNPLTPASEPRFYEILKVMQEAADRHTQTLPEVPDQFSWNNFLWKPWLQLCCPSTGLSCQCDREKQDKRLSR
# [1] = target: T1, Steryl-sulfatase (Homo sapiens, UniProt P08842); assay: Binding affinity against estrone sulfatase in placental preparation
# [2] = target: T1, Steryl-sulfatase; assay: Inhibition against estrone sulfatase in placental preparation
# [3] = target: T1, Steryl-sulfatase; assay: Binding affinity against estrone sulfatase in breast tumor preparations
smiles,measurement,setting,value
C[C@]12CC[C@@H]3c4ccc(O[P@](C)(=O)S)cc4CC[C@H]3[C@@H]1CCC2=O,Ki,[1],15 µM
same,IC50,[2],36 µM
same,Ki,[3],33 µM
